miR-21 reporter = miR-21 reporter, rising signal | HeLa miR-21 FLuc reporter, luciferase, 48 h | Potency, µM (doses to about 38.3 µM), inactives show at the top dose reporter change, positive = more light | 340,000 tested, under 10 active | AID 2288; active = well fitted rising curve with a large enough effect; inconclusive = small, poorly fitted or top-dose-only effect; inactive = no such curve, though single readings can be large or run the other way;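 note: % of control where 0% means no effect; miR-21 action dims this reporter so a rising signal means less miR-21 action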
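HeLa cells stably expressing CMV-driven firefly luciferase with a downstream miR-21 binding sequence, endogenously expressing miR-21, were treated with titrations (up to about 40uM final) for 48 hours at 37 degree Celsius. Luciferase luminescence was read after lysis.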
TDP1 cell CPT = DT40-hTDP1 cell growth loss with CPT | chicken DT40 Tdp1-/-;hTDP1 cells + 20 nM CPT, ATP luminescence, 48 h | Potency, µM (doses to about 46.2 µM), for the others: top-dose activity change, negative = growth inhibition, usual class: inhibitors | 420,000 compounds, 12% hits | AID 686979; also: potency is read from the fitted curve at half-maximal effect; % is scaled to controls: 0 for no effect and ±100 for the full control effect; nearly all actives have a fitted effect of over 55% in size
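Cell growth measured by CellTiter-Glo luminescence after a minimum 48 h, 37 C compound exposure with 20 nM CPT in Tdp1-knockout DT40 cells stably expressing hTDP1, seeded 400/well; qHTS titration format.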
uPA surface inh = cell surface uPA generation inhibition | cell surface uPA generation assay, qHTS | Potency, µM (top dose mostly 38.3 µM), inactives show at the top dose activity change, negative = inhibition, most hits filed as inhibitors | 330,000 compounds, 0.31% hits | AID 540303; active = well fitted inhibition curve with a large enough effect; inconclusive = small, poorly fitted or top-dose-only effect; inactive = no such curve, though single readings can be large or run the other way; tested in mouse RAW 264.7 cells; also: potency is read from the fitted curve at half-maximal effect; % is scaled to controls: 0 for no effect and ±100 for the full control effect; nearly all actives have a fitted effect of over 55% in size
DT40 TDP1 no CPT = qHTS for Inhibitors of human tyrosyl-DNA phosphodiesterase 1 (TDP1): qHTS in cells in absence of CPT; DT40 Tdp1-/- hTDP1 cells, no CPT, ATP luminescence, 48 h; Potency, µM (series often up to 46.2 µM), for inactives: top-dose activity change, negative = growth inhibition, usual class: inhibitors; 420,000 compounds, 15% hits; AID 686978, 2013; also: potency is read from the fitted curve at half-maximal effect; % is scaled to controls: 0 for no effect and ±100 for the full control effect; nearly all actives have a fitted effect of over 55% in size
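Readout: luminescence from CellTiter-Glo after 30 min in the dark at RT. Cells: DT40 Tdp1-/- with stable hTDP1, 400/well. Exposure: compounds alone, ≥48 hr, 37 °C.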
TDP1 inh = TDP1 (human) enzyme inhibition. Q9NUW8. recombinant TDP1, AlphaScreen DNA substrate cleavage. Potency, µM (doses to about 130 µM), inactives show top-dose activity change, negative = inhibition, most hits filed as inhibitors. 350,000 compounds, 0.28% hits; also: potency is read from the fitted curve at half-maximal effect; % is scaled to controls: 0 for no effect and ±100 for the full control effect; nearly all actives have a fitted effect of over 40% in size
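Recombinant human Tdp1 (E. coli-expressed, 1 nM final) preincubated with compounds 15 min at room temperature, then 5'-biotin/3'-phosphotyrosine-FITC DNA substrate (15 nM final) added for 5 min. AlphaScreen beads (10 ug/ml final) added 10 min; cleavage lowers signal.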
Active calls of the source: *; ? = inconclusive; nt = no result given; [ ] = another dose, or the depositor's remark. A selection: hits, their analogues and other compounds. The true share with any hit is near 16%. Unless noted, calls follow the shape of the dose curve; as a rule, active = well fitted curve in the direction sought with a large enough effect; inconclusive = small, poorly fitted or top-dose-only effect, or another doubt; inactive = no such curve, though single readings can be large; an effect the other way counts as inactive or inconclusive.

No.	Structure	miR-21 reporter	TDP1 cell CPT	uPA surface inh
1	COc1cccc(N2C(=O)C3C(C2=O)C3(c2ccccc2)c2ccccc2)c1 (stereo not drawn)	0%	-13%	1%
2	CCOc1ccc(N2C(=O)C3C(C2=O)C3(c2ccccc2)c2ccccc2)cc1 (stereo not drawn)	?	18µM*	-5%
3	CCOC(=O)CN1C(=O)C(Sc2n[nH]c(-c3ccccc3)n2)CCc2ccccc21 (stereo not drawn)	21%	21µM*	1%
4	CCOc1ccc(N2C(=O)CC(SCC(=O)O)C2=O)cc1 (stereo not drawn)	0%	-6%	-1%
5	COc1ccc(N2C(=O)CC(Sc3n[nH]c(-c4ccccc4)n3)C2=O)cc1 (stereo not drawn)	1%	0.46µM*	3%
6	CCOc1ccc(N2C(=O)CC(Sc3n[nH]c(-c4ccccc4)n3)C2=O)cc1 (stereo not drawn)	0%	7.3µM*	8%
7	CCOC(=O)CN1C(=O)C(CC)Oc2ccccc21 (stereo not drawn)	-3%	-2%	nt
8	CCOc1ccc(N2C(=O)CC(Sc3nc(CC(C)C)ccc3C#N)C2=O)cc1 (stereo not drawn)	-5%	23µM*	-3%
9	CCOc1ccc(N2C(=O)CC(N)C2=O)cc1 (stereo not drawn)	1%	1.8µM*	-12%
10	CCOc1ccc(N2C(=O)CC(Sc3nc(C)cc(C)c3C#N)C2=O)cc1 (stereo not drawn)	-9%	?	-6%

No.	DT40 TDP1 no CPT	TDP1 inh
1	?	3%
2	?	0%
3	21µM*	5%
4	-1%	0%
5	1.2µM*	10%
6	7.3µM*	7%
7	-18%	3%
8	?	7%
9	2.6µM*	3%
10	?	-5%

(further entries)
No.	Structure	miR-21 reporter	TDP1 cell CPT	uPA surface inh
11	CCOc1ccc(N2C(=O)CC(SCc3nc4ccccc4[nH]3)C2=O)cc1 (stereo not drawn)	-7%	16µM*	0%
12	COc1ccc(/C=N/NC(=O)CC(=O)NCc2cccnc2)cc1	0%	-11%	-1%
13	COc1cccc(N(CC(=O)Nc2cccc(C(C)=O)c2)S(C)(=O)=O)c1	-2%	-16%	2%
14	COc1ccc(N(CC(=O)Nc2cccc(C(C)=O)c2)S(=O)(=O)c2ccccc2)c(OC)c1	26%	7.3µM*	nt
15	CCc1ccccc1NC(=O)CN(c1ccc(OC)cc1OC)S(=O)(=O)c1ccccc1	7%	21µM*	-19%
16	CCCCc1nc(SCCOC)c2c(=O)n(C)c(=O)n(C)c2n1	-1%	-25%	2%
17	O=C(CCc1nc2ccccc2c(=O)[nH]1)NCCN1C(=O)S/C(=C\c2ccc(OC(F)F)cc2)C1=O	nt	?	-4%
18	CN(C[C@H](CC1CCCCC1)N(C[C@H](Cc1ccccc1)N(CCc1ccccc1)N=O)N=O)N=O	-1%	18µM*	1%
19	CN(C[C@H](Cc1ccccc1)N(C[C@H](Cc1ccccc1)N(CCc1cc(C(F)(F)F)cc(C(F)(F)F)c1)N=O)N=O)N=O	0%	?	10%
20	CC(C)C[C@@H](CN(C)N=O)N(C[C@H](Cc1ccccc1)N(CCc1ccccc1)N=O)N=O	12%	?	-1%

No.	DT40 TDP1 no CPT	TDP1 inh
11	?	nt
12	-1%	6%
13	-24%	-9%
14	6.5µM*	3%
15	?	nt
16	?	5%
17	18µM*	nt
18	16µM*	4%
19	21µM*	3%
20	18µM*	1%

The results go on:
No.	Structure	miR-21 reporter	TDP1 cell CPT	uPA surface inh
21	CN(C[C@H](Cc1ccccc1)N(C[C@H](Cc1cccc2ccccc12)N(CCc1ccccc1)N=O)N=O)N=O	-1%	?	14%
22	CC(NC(=O)C(=O)N1CCCCC1)C(c1cccs1)N1CCN(c2ccc(F)cc2)CC1 (stereo not drawn)	4%	?	-6%
23	COC(=O)c1cc(NC(=O)c2ccc3c(c2)NC(=O)c2ccccc2S3)cc(C(=O)OC)c1	0%	4.6µM*	nt
24	CNC[C@H]1Oc2cc(Br)ccc2S(=O)(=O)N([C@@H](C)CO)C[C@@H]1C	nt	-15%	nt
25	O=C(c1ccccn1)N(Cc1ccco1)C1(C(=O)Nc2ccc(Br)cc2)CCCCC1	nt	16µM*	nt
26	O=C(c1ccc2c(c1)OCO2)N(Cc1ccco1)C1(C(=O)NC2CCCCC2)CCCCC1	10%	12µM*	-2%
27	CCC(C)(C(=O)NC1CCCC1)N(Cc1ccco1)C(=O)c1ccc2c(c1)OCO2 (stereo not drawn)	-3%	9.2µM*	-5%
28	O=C(c1ccccn1)N(Cc1ccco1)C1(C(=O)NC2CCCC2)CCCCC1	2%	-28%	-4%
29	COc1ccc(OC)c(CNS(=O)(=O)c2ccc3c(c2)oc(=O)n3C)c1	-1%	?	nt
30	COc1ccc(N2Cc3cccc(C(=O)Nc4ccc(C)c(C)c4)c3C2=O)cc1	-8%	-19%	nt

No.	DT40 TDP1 no CPT	TDP1 inh
21	?	nt
22	15%	4%
23	6.5µM*	nt
24	-25%	nt
25	23µM*	nt
26	16µM*	4%
27	7.3µM*	7%
28	?	7%
29	?	0%
30	-6%	2%

(next part)
No.	Structure	miR-21 reporter	TDP1 cell CPT	uPA surface inh
31	COc1ccc(-c2nn(C)c(=O)c3ccccc23)cc1NC(=O)COc1ccc(C)cc1	-8%	23µM*	-5%
32	COc1ccc(CNC(=O)Cc2nn(C)c(=O)c3ccccc23)cc1	16%	10µM*	-10%
33	Cn1nc(CC(=O)Nc2cccc3ncccc23)c2ccccc2c1=O	11%	13µM*	-3%
34	O=C(CN1C(=O)C2C3C=CC(C4CC34)C2C1=O)Nc1cccc2ncccc12 (stereo not drawn)	-16%	21µM*	6%
35	CCN(CC)C(=O)Cn1cc(C(=O)C(=O)NCCc2ccccc2)c2ccccc21	-2%	-11%	-2%
36	CCOC(=O)C1CCCN(C(=O)c2cn(CC)c3ccc(S(=O)(=O)N4CCCC4)cc3c2=O)C1 (stereo not drawn)	-7%	-20%	nt
37	O=C(CCl)Nc1cccc2ncccc12	?	8.2µM*	-9%
38	Cn1nc(CC(=O)NC2CCCCCC2)c2ccccc2c1=O	9%	18µM*	-22%
39	COc1ccc(OC)c(NC(=O)Cc2nn(C)c(=O)c3ccccc23)c1	14%	16µM*	-7%
40	Cc1ccccc1NC(=O)CN1C(=O)C2C3CC(C(Br)C3Br)C2C1=O (stereo not drawn)	-4%	?	7%

No.	DT40 TDP1 no CPT	TDP1 inh
31	18µM*	nt
32	7.3µM*	3%
33	21µM*	5%
34	-27%	-2%
35	16%	0%
36	32%	4%
37	9.2µM*	5%
38	18µM*	0%
39	16µM*	1%
40	16µM*	0%

Following part.
No.	Structure	miR-21 reporter	TDP1 cell CPT	uPA surface inh
41	Cn1nc(C(=O)NC2CCCC2)c2ccccc2c1=O	nt	-9%	5%
42	CN(C)/C(=N\O)c1c(Cl)cccc1Cl	-1%	-7%	-2%
43	O=C(Nc1cccnc1Cl)c1ccc(S(=O)(=O)N2CCCCCC2)cc1	1%	-22%	nt
44	Cc1ccc(C(=O)CN(Cc2ccccc2)C2=NCCS2)cc1	-11%	?	-17%

No.	DT40 TDP1 no CPT	TDP1 inh
41	-10%	-1%[56.1 µM]
42	-16%	0%
43	-15%	-4%
44	?	2%

Part of the list above in order of length of the SMILES, highest first:
No.	Structure	miR-21 reporter	TDP1 cell CPT	uPA surface inh
40	Cc1ccccc1NC(=O)CN1C(=O)C2C3CC(C(Br)C3Br)C2C1=O (stereo not drawn)	-4%	?	7%
39	COc1ccc(OC)c(NC(=O)Cc2nn(C)c(=O)c3ccccc23)c1	14%	16µM*	-7%
38	Cn1nc(CC(=O)NC2CCCCCC2)c2ccccc2c1=O	9%	18µM*	-22%
42	CN(C)/C(=N\O)c1c(Cl)cccc1Cl	-1%	-7%	-2%

No.	DT40 TDP1 no CPT	TDP1 inh
40	16µM*	0%
39	16µM*	1%
38	18µM*	0%
42	-16%	0%

Assay outcomes: PubChem, National Center for Advancing Translational Sciences (NCATS)
